# B1: D3H44 IgG2 (antibody, V domains shown)
# The chains behind the UniProt entries cited, without tags or fusion partners. Where a name states a change or a piece, a line headed by the entry shows the natural chain unless it says otherwise.
# UniProt P13726: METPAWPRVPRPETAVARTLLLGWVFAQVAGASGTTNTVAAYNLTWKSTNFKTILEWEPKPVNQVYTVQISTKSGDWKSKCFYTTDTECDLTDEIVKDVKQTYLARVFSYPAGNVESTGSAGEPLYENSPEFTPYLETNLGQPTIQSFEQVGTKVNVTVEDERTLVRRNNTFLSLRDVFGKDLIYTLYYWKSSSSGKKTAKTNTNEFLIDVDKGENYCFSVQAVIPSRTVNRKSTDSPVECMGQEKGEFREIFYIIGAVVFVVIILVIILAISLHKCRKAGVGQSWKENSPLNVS
# VH: EVQLVESGGGLVQPGGSLRLSCAASGFNIKEYYMHWVRQAPGKGLEWVGLIDPEQGNTIYDPKFQDRATISADNSKNTAYLQMNSLRAEDTAVYYCARDTAAYFDYWGQGTLVTVSS
# VL: DIQMTQSPSSLSASVGDRVTITCRASRDIKSYLNWYQQKPGKAPKVLIYYATSLAEGVPSRFSGSGSGTDYTLTISSLQPEDFATYYCLQHGESPWTFGQGTKVEIKR
# Target: TF (1-234) lacking the cytoplasmic domain, relipidated (human, UniProt P13726 33-266)
# Assay: cell-based or functional assay
binder,measurement,value
B1,F.X activation IC50,0.073 nM
